Tested on: neural progenitors
Assay: Differentiated cell yield in presence vs. absence of SHH signaling activator
Conditions: effect of removal of the SHH signaling activator from the differentiation process, FIG. 2A

c1ccc2c(Oc3nc(Nc4ccc(N5CCOCC5)cc4)c4ncn(C5CCCCC5)c4n3)cccc2c1 [Purmorphamine]
Step yield of cells between Days 7 and 14: consistently lead to an increase of step yield
